# pIC50: −log10 of the molar value.
# Tests used:
# [1] = molecular target: T1, wild-type endogenous neuraminidase 3 (Neu3) (Homo sapiens, UniProt Q9UQ49); experiment: Neu3 levels in SHSY-5Y neuroblastoma cells (immunoblot, densitometry); format: cell-based; settings: SHSY-5Y cells, increasing doses, 72 hours
# T1 construct: increases wild-type endogenous neuraminidase 3 (Neu3) levels in SHSY-5Y neuroblastoma cells; endogenous in cells; host or cells: SHSY-5Y neuroblastoma cells
# T1 sequence (Q9UQ49 1-428): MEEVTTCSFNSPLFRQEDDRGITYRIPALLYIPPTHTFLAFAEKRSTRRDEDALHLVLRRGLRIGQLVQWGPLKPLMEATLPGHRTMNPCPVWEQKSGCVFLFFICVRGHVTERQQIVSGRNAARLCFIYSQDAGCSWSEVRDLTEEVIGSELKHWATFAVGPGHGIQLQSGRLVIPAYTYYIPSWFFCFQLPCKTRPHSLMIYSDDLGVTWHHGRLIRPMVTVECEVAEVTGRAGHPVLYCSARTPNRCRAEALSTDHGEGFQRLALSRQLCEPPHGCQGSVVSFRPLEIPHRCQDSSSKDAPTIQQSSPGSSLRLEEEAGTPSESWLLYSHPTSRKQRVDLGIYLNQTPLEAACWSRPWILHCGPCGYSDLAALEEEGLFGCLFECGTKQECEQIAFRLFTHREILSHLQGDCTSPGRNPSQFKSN
# [2] = molecular target: T2, Neu 4 (Homo sapiens, UniProt Q8WWR8); settings: marked *: Values reported in the literature; cited from earlier work
# T2 sequence (Q8WWR8 1-484): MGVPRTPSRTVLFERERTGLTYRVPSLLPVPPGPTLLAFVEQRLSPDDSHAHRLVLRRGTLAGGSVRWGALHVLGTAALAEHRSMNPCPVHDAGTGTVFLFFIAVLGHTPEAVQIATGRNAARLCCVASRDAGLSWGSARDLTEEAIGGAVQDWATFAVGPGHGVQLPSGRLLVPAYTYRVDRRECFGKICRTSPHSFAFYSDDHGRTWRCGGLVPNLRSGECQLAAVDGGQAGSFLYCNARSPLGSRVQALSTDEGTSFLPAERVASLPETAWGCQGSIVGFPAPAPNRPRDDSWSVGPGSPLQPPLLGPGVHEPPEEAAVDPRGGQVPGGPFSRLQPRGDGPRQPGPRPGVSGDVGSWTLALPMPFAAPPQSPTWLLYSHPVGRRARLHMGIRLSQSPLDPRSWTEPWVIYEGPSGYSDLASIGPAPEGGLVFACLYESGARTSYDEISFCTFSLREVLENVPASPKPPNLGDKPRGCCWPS
substance,measurement,setting,value
"5-(acetylamino)-4-[(aminoiminomethyl)-amino]-2,6-anhydro-3,4,5-trideoxy-D-glycero-D-galacto-non-2-enonic acid [Zanamivir]",wild-type endogenous neuraminidase 3 (Neu3) levels,[1],increases
same,pIC50,[2],3.16
